Experimental data from patent US11407811B2, “Fusion protein, preparation method therefor and use thereof” (JIANGSU RONGTAI BIOTECH CO., LTD., priority 2017, dated 2022).

What was measured:
[1] = tested on: breast cancer cell MDA-MB-231; experiment: MTT assay, proliferation of breast cancer cell MDA-MB-231; assay type: cell-based; conditions: dose 5 μg/mL
Description: The MTT assay was used to detect the inhibitory effect of the integrin blocker fusion protein obtained in Example 1 on the proliferation of various tumor cells, including melanoma cell B16F10, gastric cancer cell MGC-803, lung cancer cell A549, liver cancer cell Hep-G2, breast cancer cell MDA-MB-231, colon cancer cell HCT-116, human glioma U87, and cervical cancer cell Hela.
The tumor cells were cultured in a 5% CO2 incubator at 37° C. to a density of 90% or more, and collected by trypsinization. The cells were resuspended in the culture liquid and counted under a microscope. The cell concentration was adjusted to 3.0×10^4 cells/mL. The cell suspension was inoculated into a 96-well plate at 100 μL per well and cultured overnight in a 5% CO2 incubator at 37° C. The fusion proteins I, II, III, IV, V, and the positive drug Taxol were diluted with the culture liquid to respective predetermined concentrations. After the cells were fully adhered, each dilution was added to a 96-well plate at 100 μL per well, respectively. […] The absorbance was measured at 570 nm with a microplate reader with a reference wavelength of 630 nm, and the proliferation inhibition (PI) was calculated. […]
The test was repeated 5 times independently. The results obtained from the test were calculated as mean±SD, and statistical t-test was performed. […]

[2] = cited from earlier work

Molecule	PI (%) [1] [%]	half-life in vivo [2] [min]
CC(=O)O[C@H]1C(=O)[C@@]2(C)[C@H]([C@H](OC(=O)c3ccccc3)[C@]3(O)C[C@H](OC(=O)[C@H](O)[C@@H](NC(=O)c4ccccc4)c4ccccc4)C(C)=C1C3(C)C)[C@]1(OC(C)=O)CO[C@@H]1C[C@@H]2O [Taxol, reference compound]	59.99	
recombinant IL-2: common recombinant IL-2 of the related art		6.9
